Series [1] concerns Rheumatoid arthritis patients. The series is described as follows: Change in VECTRA DA Score after treatment (Example 2). The series is classed as in vivo, human. The following applies: Patient 8. The source says: The term “VECTRA DA Score” or “VECTRA DA MBDA Score” as used herein refers to a score obtained from an algorithm/formula that combines the concentrations of 12 serum protein biomarkers measured in VECTRA® DA test (Crescendo Bioscience, Inc.) into a single score that represents the level of rheumatoid arthritis disease activity on a scale of 1 to 100. A VECTRA DA Score of ≦29 reflects low disease activity, a VECTRA DA Score of >29 and ≦44 reflects moderate disease activity, and a VECTRA DA Score of >44 reflects high disease activity. VECTRA DA Score is provided in VECTRA DA test report.
VECTRA® DA test is a multi-biomarker disease activity (MBDA) blood test sold by Crescendo Bioscience. The test provides a quantitative assessment of rheumatoid arthritis disease activity in patients by using twelve protein biomarkers—Vascular Cell Adhesion Molecule 1 (VCAM-1), Epidermal Growth Factor (EGF), Vascular Endothelial Growth Factor A (VEGF-A), Interleukin-6 (IL-6), Tumor Necrosis Factor Receptor Type 1 (TNFR1), Matrix Metalloproteinase-1 (MMP-1), Matrix Metalloproteinase-3 (MMP-3), YKL-40, Leptin, Resistin, Serum Amyloid A (SAA), and C-Reactive Protein (CRP). […]
The patients were treated with the selected treatment methods for at least five months and the post-treatment biomarker levels and VECTRA DA Score were determined by VECTRA® DA test along with CRP level and ESR. […]

Series [2] deals with Rheumatoid arthritis patients. Nature of the series: Treatment outcome (effectiveness, clinical course) of treatment methods (Example 2). The series is classed as in vivo, human. On the procedure:
A group of biomarkers having each biomarker with at least 40% elevated serum level than the serum level in a control set of RA patients from the InFoRM study (that was used to establish range of biomarker level in patients) was identified. Treatment methods were identified that are known to affect at least two biomarkers from among the selected biomarkers (using the Grid). […]
The patients were treated with the selected treatment methods for at least five months and the post-treatment biomarker levels and VECTRA DA Score were determined by VECTRA® DA test along with CRP level and ESR. The change is VECTRA DA Score, CRP level and ESR was determined to determine the change in disease activity and effectiveness of the selected treatment method.
The treatment method was determined to be effective when the post-treatment disease activity was lower than the pre-treatment disease activity in the patient: when VECTRA DA Score was lower than the pre-treatment VECTRA DA Score and/or when post-treatment CRP level and/or post-treatment ESR was lower than the corresponding pre-treatment values.
If the first selected treatment method was determined to be ineffective in the patient, then a second treatment method was selected based on the similar protocol as discussed before.

The subject of series [3] is Rheumatoid arthritis patients. The class given is in vivo, human. An excerpt: A group of biomarkers having each biomarker with at least 40% elevated serum level than the serum level in a control set of RA patients from the InFoRM study (that was used to establish range of biomarker level in patients) was identified. Treatment methods were identified that are known to affect at least two biomarkers from among the selected biomarkers (using the Grid). Among the identified treatment methods, the methods were selected based on the patient's history—the methods that were contraindicated, were unsuccessful in treating the patient previously, or were known to cause an allergic response in the patient were avoided, and the treatment methods that were known to affect the maximum number of biomarkers or were known to affect the maximum number of the highest elevated biomarkers and were administered via patient's preferred route were selected and were administered to the patient. […] (hydroxychloroquine) and sulfasalazine were not used to treat the patients due to their clinical histories—[…] and sulfasalazine are mild drugs that work on mild cases of arthritis early in the disease process. […]
The treatment method (one method or a combination of methods) was determined to be effective when the post-treatment disease activity was lower than the pre-treatment disease activity in the patient: when VECTRA DA Score was lower than the pre-treatment VECTRA DA Score. Specifically, the treatment method was determined to be effective when the post-treatment disease activity was at least 20% lower than the pre-treatment disease activity, or when the VECTRA DA Score is decreased to a lower disease activity level after the treatment (i.e., from high to moderate, or high to low, or moderate to low).
If the first selected treatment method (one method or a combination of methods) was determined to be ineffective in the patient, then a second treatment method (one method or a combination of methods) was selected based on the similar protocol as discussed before. […]

The subject of another series is VCAM-1. Also on record: key: Y: biomarkers that are known to be positively affected by a treatment method (i.e., biomarkers that are known to have a favorable response to a treatment method); N: biomarkers that are not known to be positively affected by a treatment method (i.e., biomarkers that are known to have an unfavorable response to a treatment method); biomarkers that are known to be positively affected by a ORENCIA, the brand name of Atabacept. As to conditions: literature 1990-2012, ACR abstracts 2006-2013; cited from earlier work.

A further series relates to VEGF-A. Also on record: key: Y: biomarkers that are known to be positively affected by a treatment method (i.e., biomarkers that are known to have a favorable response to a treatment method); N: biomarkers that are not known to be positively affected by a treatment method (i.e., biomarkers that are known to have an unfavorable response to a treatment method); biomarkers that are known to be positively affected by a ORENCIA, the brand name of Atabacept. The following applies: literature 1990-2012, ACR abstracts 2006-2013; cited from earlier work.

The test system of another series is IL-6. Set-up: key: Y: biomarkers that are known to be positively affected by a treatment method (i.e., biomarkers that are known to have a favorable response to a treatment method); N: biomarkers that are not known to be positively affected by a treatment method (i.e., biomarkers that are known to have an unfavorable response to a treatment method); biomarkers that are known to be positively affected by a ORENCIA, the brand name of Atabacept. The following applies: literature 1990-2012, ACR abstracts 2006-2013; cited from earlier work.

The subject of another series is MMP-1. Set-up: key: Y: biomarkers that are known to be positively affected by a treatment method (i.e., biomarkers that are known to have a favorable response to a treatment method); N: biomarkers that are not known to be positively affected by a treatment method (i.e., biomarkers that are known to have an unfavorable response to a treatment method); biomarkers that are known to be positively affected by a ORENCIA, the brand name of Atabacept. The following applies: literature 1990-2012, ACR abstracts 2006-2013; cited from earlier work.

The next series has as its system MMP-3. Also on record: key: Y: biomarkers that are known to be positively affected by a treatment method (i.e., biomarkers that are known to have a favorable response to a treatment method); N: biomarkers that are not known to be positively affected by a treatment method (i.e., biomarkers that are known to have an unfavorable response to a treatment method); biomarkers that are known to be positively affected by a ORENCIA, the brand name of Atabacept. The following applies: literature 1990-2012, ACR abstracts 2006-2013; cited from earlier work.

The next series deals with YKL-40. Also on record: key: Y: biomarkers that are known to be positively affected by a treatment method (i.e., biomarkers that are known to have a favorable response to a treatment method); N: biomarkers that are not known to be positively affected by a treatment method (i.e., biomarkers that are known to have an unfavorable response to a treatment method); biomarkers that are known to be positively affected by a ORENCIA, the brand name of Atabacept. As to conditions: literature 1990-2012, ACR abstracts 2006-2013; cited from earlier work.

The test system of the next series is Leptin. Also on record: key: Y: biomarkers that are known to be positively affected by a treatment method (i.e., biomarkers that are known to have a favorable response to a treatment method); N: biomarkers that are not known to be positively affected by a treatment method (i.e., biomarkers that are known to have an unfavorable response to a treatment method); biomarkers that are known to be positively affected by a ORENCIA, the brand name of Atabacept. As to conditions: literature; Leptin usable as biomarker only in patients with 15% or less body fat; cited from earlier work.

The next series has as its system Resistin. Set-up: key: Y: biomarkers that are known to be positively affected by a treatment method (i.e., biomarkers that are known to have a favorable response to a treatment method); N: biomarkers that are not known to be positively affected by a treatment method (i.e., biomarkers that are known to have an unfavorable response to a treatment method); biomarkers that are known to be positively affected by a ORENCIA, the brand name of Atabacept. As to conditions: literature 1990-2012, ACR abstracts 2006-2013; cited from earlier work.

The next series relates to SAA. Set-up: key: Y: biomarkers that are known to be positively affected by a treatment method (i.e., biomarkers that are known to have a favorable response to a treatment method); N: biomarkers that are not known to be positively affected by a treatment method (i.e., biomarkers that are known to have an unfavorable response to a treatment method); biomarkers that are known to be positively affected by a ORENCIA, the brand name of Atabacept. The following applies: literature 1990-2012, ACR abstracts 2006-2013; cited from earlier work.

The subject of another series is CRP. Also on record: key: Y: biomarkers that are known to be positively affected by a treatment method (i.e., biomarkers that are known to have a favorable response to a treatment method); N: biomarkers that are not known to be positively affected by a treatment method (i.e., biomarkers that are known to have an unfavorable response to a treatment method); biomarkers that are known to be positively affected by a ORENCIA, the brand name of Atabacept. The following applies: literature 1990-2012, ACR abstracts 2006-2013; cited from earlier work.

Abatacept [ATAB]: the “VECTRA DA disease activity state after treatment” value in series [1] (March 2013) is given as “(low disease (A VECTRA DA Score of ≦29 reflects low disease activity)”. In series [1] (treatment December 2012-June 2013, score March 2013), the “VECTRA DA Score - Decreased by” value is “Decreased by 20”. Further, the “Treatment Outcome” value in series [2] (Patient 8, MTX not algorithm-selected, ORENCIA December 2012-June 2013, based on VECTRA DA score) is reported as “Effective,”; in [2] (Patient 10, MTX (November 2011) and ORENCIA (August-December 2012) not algorithm-selected, HUMIRA December 2012-June 2013, based on VECTRA DA Score) it was “Not effective”. In addition, in [3] (Patient 2, before August 2012), the “Outcome of previous treatment” value is recorded as “unsuccessful”. Also, the “Reason for replacement of treatment” value in [3] (Patient 7, June 2013) is recorded as “lack of efficacy,”. For the same substance, the “Treatment effectiveness (reason for discontinuation / earlier trial)” value in series [3] (patient 16, January 2014) is “to inefficacy”. The “VCAM-1 positively affected by treatment method” value with VCAM-1 was “Y”. Moreover, the “VEGF-A positively affected by treatment method” value in the series with VEGF-A is given as “N”. Besides, the “IL-6 positively affected by treatment method” value in the series on IL-6 was “Y”. Besides, in the series on MMP-1, the “MMP-1 positively affected by treatment method” value is recorded as “N”. The “MMP-3 positively affected by treatment method” value in the series with MMP-3 was “Y”. The “YKL-40 positively affected by treatment method” value in the series on YKL-40 is “N”. Further, the “Leptin positively affected by treatment method” value in the series with Leptin is on record as “O”. The “Resistin positively affected by treatment method” value in the series with Resistin was “N”. Also, in the series with SAA, the “SAA positively affected by treatment method” value was “N”. Also, the “CRP positively affected by treatment method” value with CRP was “Y”.

Source of the values: patent publication US9387246B2, “Treatment methods for rheumatoid arthritis” (priority 2013, dated 2016).
